## Antibody variant affinities, Ab-14 light chain, assay B

Reference: Li et al. 2023, doi:10.1038/s41467-023-39022-2. File: FLAb, binding data.

Target: peptide PDVDLGDISGINAS, taken from heptad repeat 2 (HR2) of SARS-CoV-2 spike.

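Phage display of a naive human antibody library on the peptide gave the parent. The variants were designed computationally from a first round of random CDR variants and then made and measured. Several design methods are mixed in this list. The scFvs were displayed on barcoded MATa yeast, the peptide on MATalpha yeast. Mating (16 h, 30 °C) was followed by selection of diploids and sequencing of their barcodes. A regression on co-assayed BCL2-family reference pairs converts the normalised counts of each replicate to an apparent Kd. Each pool was mated in six replicate cultures.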

Each scFv is VH, a 15-residue (Gly4Ser)3 linker, VL, as in the parent Ab-14, and differs from it in the CDRs of the light chain only.
VH: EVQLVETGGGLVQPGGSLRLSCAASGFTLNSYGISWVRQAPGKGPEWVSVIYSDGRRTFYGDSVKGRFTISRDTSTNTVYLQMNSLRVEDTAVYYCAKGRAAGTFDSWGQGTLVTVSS
VL: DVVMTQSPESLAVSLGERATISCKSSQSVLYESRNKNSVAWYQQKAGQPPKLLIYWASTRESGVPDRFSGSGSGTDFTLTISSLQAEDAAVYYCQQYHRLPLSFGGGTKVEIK

Each variant is given by its three light chain CDRs, as the data file delimits them; those of the parent are KSSQSVLYESRNKNSVA, WASTRES, QQYHRLPLS. Each Kd is an estimate from the mating assay, the geometric mean of the replicates in which the pair was seen; lower is stronger.

{"CDR-L1": "KSSQSDRYESRNTNSVA", "CDR-L2": "WASTRES", "CDR-L3": "QQYHRLPLS", "Kd": "230 nM", "replicates with signal": "4 of 6"}
{"CDR-L1": "KLSQQVLYESRNKNSVA", "CDR-L2": "NASQRES", "CDR-L3": "QQYHRLPLS", "Kd": "600 pM", "replicates with signal": "6 of 6"}
{"CDR-L1": "KSSWQVLYESRNKNSVA", "CDR-L2": "WASTREL", "CDR-L3": "QQYARLPLS", "Kd": "16 nM", "replicates with signal": "1 of 6"}
{"CDR-L1": "KAYQSWLYESRNKNSVA", "CDR-L2": "GASTRES", "CDR-L3": "QQYHRLPLI", "Kd": "3.2 nM", "replicates with signal": "6 of 6"}
{"CDR-L1": "KLSQSTLYESRMKNSVA", "CDR-L2": "NASTRES", "CDR-L3": "QQYHRLPLS", "Kd": "1.3 nM", "replicates with signal": "6 of 6"}
{"CDR-L1": "KLSQSVLYEDRMKNSVA", "CDR-L2": "NASTRMS", "CDR-L3": "QQYHRLPLS", "Kd": "650 pM", "replicates with signal": "6 of 6"}
{"CDR-L1": "KSSQSVLYESRNKSSVA", "CDR-L2": "ADSTREN", "CDR-L3": "QQYVRLPLS", "Kd": "24 nM", "replicates with signal": "6 of 6"}
{"CDR-L1": "KLSQSDWYQSRMDNSVA", "CDR-L2": "DASTRES", "CDR-L3": "QQYHRLPLS", "Kd": "4.4 nM", "replicates with signal": "6 of 6"}
{"CDR-L1": "KLMNSLGAFKQWEDNVA", "CDR-L2": "EVEHKVA", "CDR-L3": "QQYDHLPLT", "Kd": "240 nM", "replicates with signal": "2 of 6"}
{"CDR-L1": "QISMILNFESLKGSNVA", "CDR-L2": "QMETRVN", "CDR-L3": "QQYDRLPLS", "Kd": "2.7 nM", "replicates with signal": "6 of 6"}
{"CDR-L1": "KFGQGVLYESRNKNSVA", "CDR-L2": "GASQRWS", "CDR-L3": "QQYHRLPLS", "Kd": "1.3 nM", "replicates with signal": "6 of 6"}
{"CDR-L1": "HISQSVGMTSRNRNSVA", "CDR-L2": "ENSTRED", "CDR-L3": "QQYDRLPLS", "Kd": "120 nM", "replicates with signal": "6 of 6"}
{"CDR-L1": "KFSQSVLYESRTQNSVA", "CDR-L2": "NASTRES", "CDR-L3": "QCYHRLPLS", "Kd": "2.8 nM", "replicates with signal": "6 of 6"}
{"CDR-L1": "KLSGSFLYESRNKNSVA", "CDR-L2": "NASTRES", "CDR-L3": "QQYHRLPLS", "Kd": "670 pM", "replicates with signal": "6 of 6"}
{"CDR-L1": "KFSQEVLMGDRNKNSVA", "CDR-L2": "KASTRLS", "CDR-L3": "QQYHRLPLS", "Kd": "2.4 nM", "replicates with signal": "6 of 6"}
{"CDR-L1": "MISQSVGMTSRNKNSVA", "CDR-L2": "ENSTRED", "CDR-L3": "QQYDRLPLS", "Kd": "2.5 µM", "replicates with signal": "1 of 6"}
{"CDR-L1": "KLSQSWLYESRVKNSVA", "CDR-L2": "NASTRES", "CDR-L3": "QQYHRLPLS", "Kd": "610 pM", "replicates with signal": "6 of 6"}
{"CDR-L1": "KVSEFTRGLMSRQDSIA", "CDR-L2": "DNVTRSN", "CDR-L3": "QQYDRLPLS", "Kd": "370 nM", "replicates with signal": "1 of 6"}
{"CDR-L1": "KSSQSVLYESRNKNSVA", "CDR-L2": "QASTRES", "CDR-L3": "QQYYRLPLG", "Kd": "1.8 nM", "replicates with signal": "6 of 6"}
{"CDR-L1": "VIKNMMNTMGTQHQNIA", "CDR-L2": "NGAIKAD", "CDR-L3": "QQYQRLPLW", "Kd": "620 pM", "replicates with signal": "6 of 6"}
{"CDR-L1": "NLMSHMSELSVWKYSIA", "CDR-L2": "SASIRGS", "CDR-L3": "QQYFRLPLA", "Kd": "16 nM", "replicates with signal": "6 of 6"}
{"CDR-L1": "KLSQSVLYEDRNKNSVA", "CDR-L2": "NASTRFS", "CDR-L3": "QQYHRLPLS", "Kd": "420 pM", "replicates with signal": "6 of 6"}
{"CDR-L1": "KISISYLEESRNKNSVA", "CDR-L2": "EASTRES", "CDR-L3": "QQYHRLPLS", "Kd": "16 nM", "replicates with signal": "5 of 6"}
{"CDR-L1": "KFSQSVGYESRNKNSVA", "CDR-L2": "DASTRES", "CDR-L3": "QQYHRLPLS", "Kd": "450 pM", "replicates with signal": "6 of 6"}
{"CDR-L1": "KLSQSFLYESRNKNSVA", "CDR-L2": "EASTRLS", "CDR-L3": "QQYHRLPLS", "Kd": "1.0 nM", "replicates with signal": "6 of 6"}
{"CDR-L1": "KSKQVVLYESCNKNSIA", "CDR-L2": "KASTRES", "CDR-L3": "QQYHRLPLS", "Kd": "93 nM", "replicates with signal": "3 of 6"}
{"CDR-L1": "KLSQSVLYESRNGNSVA", "CDR-L2": "NASTREV", "CDR-L3": "QQYHRLPLS", "Kd": "600 pM", "replicates with signal": "6 of 6"}

The parent sequence was in this pool as ten entries: three were never detected, three once, and four in most replicates, with averages from 2.2 nM to 240 nM. The authors' rule: three or more of the six replicates give a measured affinity, fewer mean a poor binder. Values of this round are not directly comparable with the first-round values of the same sequences. Nonspecific signal, from three strains lacking the peptide, appeared in 4% of pairings of all light chain designs, centred on 430 nM (5% of these signals below 38 nM); values are not corrected for it.